T1: Human Ang-1/2 BsmI chimeric molecule (human)
T1 sequence: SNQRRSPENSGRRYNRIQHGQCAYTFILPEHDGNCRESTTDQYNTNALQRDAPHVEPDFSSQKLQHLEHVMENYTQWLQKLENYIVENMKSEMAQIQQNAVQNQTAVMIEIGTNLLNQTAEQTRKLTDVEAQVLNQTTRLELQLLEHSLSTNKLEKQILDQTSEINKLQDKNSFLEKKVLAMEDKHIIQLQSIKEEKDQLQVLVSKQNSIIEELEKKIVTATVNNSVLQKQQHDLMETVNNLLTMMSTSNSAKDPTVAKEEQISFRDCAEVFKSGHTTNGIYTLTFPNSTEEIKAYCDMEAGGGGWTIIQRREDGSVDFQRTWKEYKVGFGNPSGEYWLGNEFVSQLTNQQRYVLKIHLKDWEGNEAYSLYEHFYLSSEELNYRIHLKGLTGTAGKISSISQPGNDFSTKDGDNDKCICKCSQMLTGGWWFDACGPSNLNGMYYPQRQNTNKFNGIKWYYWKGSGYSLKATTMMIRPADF

Amino acid sequences for entries named in this document (tags omitted). A change or cut given only in a name is not applied to a line headed by its entry.
UniProt O15123: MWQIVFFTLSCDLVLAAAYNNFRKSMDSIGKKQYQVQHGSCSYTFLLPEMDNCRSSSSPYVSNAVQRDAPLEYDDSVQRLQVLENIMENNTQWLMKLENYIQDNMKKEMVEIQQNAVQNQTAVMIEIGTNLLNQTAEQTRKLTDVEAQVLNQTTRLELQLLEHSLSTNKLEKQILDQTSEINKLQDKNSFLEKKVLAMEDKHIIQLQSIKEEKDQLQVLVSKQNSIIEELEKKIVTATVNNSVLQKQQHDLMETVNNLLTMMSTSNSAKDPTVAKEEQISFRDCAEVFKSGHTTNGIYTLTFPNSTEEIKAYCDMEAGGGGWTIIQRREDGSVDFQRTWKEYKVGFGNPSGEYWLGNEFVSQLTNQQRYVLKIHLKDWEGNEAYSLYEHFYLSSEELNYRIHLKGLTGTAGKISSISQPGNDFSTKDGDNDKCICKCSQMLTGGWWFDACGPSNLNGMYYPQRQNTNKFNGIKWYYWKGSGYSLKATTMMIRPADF
UniProt O35608: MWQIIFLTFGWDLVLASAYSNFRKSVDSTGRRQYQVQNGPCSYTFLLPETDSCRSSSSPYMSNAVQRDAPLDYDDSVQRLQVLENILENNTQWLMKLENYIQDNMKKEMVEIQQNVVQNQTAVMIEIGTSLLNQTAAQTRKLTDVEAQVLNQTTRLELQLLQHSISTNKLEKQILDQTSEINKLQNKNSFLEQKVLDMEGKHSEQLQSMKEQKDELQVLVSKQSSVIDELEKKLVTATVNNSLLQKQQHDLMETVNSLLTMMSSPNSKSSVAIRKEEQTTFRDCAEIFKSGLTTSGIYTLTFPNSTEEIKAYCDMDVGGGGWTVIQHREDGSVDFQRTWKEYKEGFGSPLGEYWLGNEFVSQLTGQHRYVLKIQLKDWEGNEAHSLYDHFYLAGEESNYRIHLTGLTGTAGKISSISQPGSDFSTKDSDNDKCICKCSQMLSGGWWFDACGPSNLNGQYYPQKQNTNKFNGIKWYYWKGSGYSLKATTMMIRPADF

B1: mAb 5.14.1 (antibody, part only; not given: light chain, V domains shown, part only)
VH: QVQLVQSGAEVKKPGASVKVSCKASGYTFTGYYMYWVRQAPGQGLEWMGWINPNSGGTNYAQKFQGRVTMTRDTSISTAYMELSRLRSDDTAVYYCARDQGITVAGPFDYWGQGSLVTVSSA
B2: mAb 5.101.1 (antibody, V domains shown)
VH: QVQLVQSGAEVKKPGASVKVSCKASGYTFTGYYMHWVPQAPGQGLEWMGWINPNSGGTNYAQKFQGRVTMTRDTSISTAYMELRRLRSDDTAVYYCARDGGSIPVSGHFDYWGQGTLVTVSS
VL: EIVMTQSPATLSVSPGERATLSCRASQSLISNLAWYQQKPGQAPRLLIFGASTRATGIPARFSGSGSGTEFTLTISSLQSEDFAVYYCHQYNNWWTFGQGTKVEIKR

What was measured:
[1] = biological target: human Angiopoietin-2 (human) (UniProt O15123); experiment: inhibition of rhAng-2 binding to its receptor
human Ang-2443 (human) = human Ang-2443 (human) (UniProt O15123); experiment: ELISA
[2] = biological target: human Ang-2 V345M (human) (UniProt O15123); experiment: ELISA
[3] = biological target: T1, Human Ang-1/2 BsmI chimeric molecule (human); experiment: ELISA
[4] = biological target: Mouse/Human Ang-2 StuI chimeric molecule (mouse; human) (UniProt O35608); experiment: ELISA
[5] = biological target: human Ang-2 changed at positions 365 and 367 (human) (UniProt O15123); experiment: ELISA
[6] = biological target: human Ang-2 H375Q (human) (UniProt O15123); experiment: ELISA
[7] = biological target: Mouse/Human chimeric Ang-2 with the human StuI-TfiI fragment (mouse/human chimera) (UniProt O35608); experiment: ELISA

OD650 in inhibition assay [1] [OD650]	% of binding to human Ang-2 (human Ang-2443 (human)) [%]	% of binding to human Ang-2 [2] [%]	% of binding to human Ang-2 [3] [%]	% of binding to human Ang-2 [4] [%]	% of binding to human Ang-2 [5] [%]	% of binding to human Ang-2 [6] [%]	% of binding to human Ang-2 [7] [%]	Binder
0.043	100	100	100	100	100	100	31	B1
–	–	–	–	–	100	–	–	B2
